# Screening results as filed in PubChem.
# A549 tox: counter-screen for Nrf2 inhibitors: cytotoxicity in A549 cells; A549 ARE-Fluc cells, CellTiter-Fluor viability, 18-24 h; Potency, µM (titrated, usually from 46 µM), inactives show at the top dose activity change, negative = cytotoxicity, actives largely listed as inhibitors; 390,000 tested, 0.16% active; note: potency is the fitted concentration of half-maximal effect; % is set by controls: 0 for no effect and ±100 for the full control effect
#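 A549 ARE_Fluc cells in 5% FBS OPTI-MEM were exposed to compounds in concentration-response for 18-24 h at 37 deg C. Viability was read by CellTiter-Fluor fluorescence (Ex 405/Em 525) after 30 min, before the luciferase read.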
# Nrf2 ARE act: Nrf2 pathway activation; AREc32 ARE-luciferase reporter (MCF7-derived line), luminescence, 24 h; Potency, µM (doses to about 46.1 µM), without a hit: at the top dose activation, most hits filed as activators; 410,000 tested, 0.31% active; AID 624171; note: potency is the fitted concentration of half-maximal effect; % of control where 0% means no effect; nearly all actives have a fitted effect of over 65% in size
#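 AREc32 cells carrying an ARE-driven firefly luciferase, 1000 cells/well in OPTI-MEM with 5% FBS, dosed after overnight attachment and incubated 24 hr at 37 deg C. Steady-Glo luminescence read after 30 min at RT.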
# Glioma ERSR ind: ER stress response induction in glioma; AID 602332; U87-MG GRP78 promoter luciferase reporter, 16 h; 420,000 tested, 0.02% active; Potency, µM, without a hit: top-dose activation, most hits filed as activators; note: potency is the fitted concentration of half-maximal effect; series mostly up to about 76 µM; % of control where 0% means no effect; nearly all actives have a fitted effect of over 35% in size
#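 ERSR induction read as luciferase luminescence (Bright-Glo, 10 min at room temperature) in stably transfected human U87-MG glioma cells exposed to compounds for 16 h, using GRP78 as sensor.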
# miR-21 reporter: miR-21 reporter, rising signal. HeLa miR-21 FLuc reporter, luciferase, 48 h. Potency, µM (titrated, usually from 38.3 µM), without a hit: at the top dose reporter change, positive = more light. 340,000 tested, under 10 active. AID 2288; active = well fitted rising curve with a large enough effect; inconclusive = small, poorly fitted or top-dose-only effect; inactive = no such curve, though single readings can be large or run the other way;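 also: % of control where 0% means no effect; miR-21 action dims this reporter so a rising signal means less miR-21 action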
#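 HeLa cells stably expressing CMV-driven firefly luciferase with a downstream miR-21 binding sequence, endogenously expressing miR-21, were treated with titrations (up to about 40uM final) for 48 hours at 37 degree Celsius. Luciferase luminescence was read after lysis.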
# Nrf2 inh: Nrf2 pathway inhibition. A549 ARE-Fluc reporter, luciferase luminescence, 18-24 h. Potency, µM (titrated, usually from 46 µM), for inactives: at the top dose activity change, negative = inhibition, usual class: inhibitors. 360,000 tested, 2.1% active. AID 504444; note: potency is the fitted concentration of half-maximal effect; % is set by controls: 0 for no effect and ±100 for the full control effect; nearly all actives have a fitted effect of over 60% in size
#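 Quantitative HTS in A549 cells stably bearing an antioxidant response element-firefly luciferase construct. Inhibition of Nrf2-driven transcription was scored by luminescence after 18-24 h of compound exposure at 37 °C.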
# Mito fusion act: blocks mitochondrial division or promotes mitochondrial fusion | S. cerevisiae fusion-defective mutant growth rescue, CellTiterGlo 48 h | Potency, µM (titrated, usually from 46.1 µM), inactives show top-dose growth rescue (activation), actives largely listed as activators | 320,000 tested, 0.23% active | AID 485298; note: potency is the fitted concentration of half-maximal effect; % of control where 0% means no effect; nearly all actives have a fitted effect of over 45% in size
#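 Compounds are tested for their ability to restore growth of mitochondrial fusion-defective yeast strains at non-permissive 37C in YPEG medium over 48 hours. Viability is quantified by luciferase luminescence.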
# * = called active by the depositor; ? = inconclusive; . = no result given. Sampled rows, rich in hits. Any-hit rate of the full collection: about 2.3%. Unless noted, calls come from the whole dose curve; as a rule, active = well fitted curve in the direction sought with a large enough effect; inconclusive = small, poorly fitted or top-dose-only effect, or another doubt; inactive = no such curve, though single readings can be large; an effect the other way counts as inactive or inconclusive.
# Under each structure: Nrf2 ARE act | Mito fusion act | Nrf2 inh | A549 tox | miR-21 reporter | Glioma ERSR ind
1	Cc1ccc(NS(=O)(=O)c2ccc(N3CCCC3=O)cc2)cc1C
  . | . | 15µM* | -6% | . | .
2	CCC(C)NCc1ccc(C(=O)OC)o1 (stereo not drawn)
  0% | 1% | -13% | 0% | -6% | -3%
3	COc1cc(N)c(N)cc1OC
  . | . | . | . | . | 4%
4	Cc1ccc(C2CC(C(F)(F)F)n3nc(C(=O)NCc4c(C)nn(C)c4C)c(Cl)c3N2)cc1 (stereo not drawn)
  6% | -3% | 12µM* | -29% | ? | -4%
5	Cc1nn(C)cc1CN(C)C(=O)c1nn2c(c1Cl)NC(c1cccs1)CC2C(F)(F)F (stereo not drawn)
  0% | 0% | 16µM* | -5% | 8% | -2%
6	Cc1nn(C)cc1CN(C)C(=O)c1nn2c(c1Br)NC(c1cccs1)CC2C(F)(F)F (stereo not drawn)
  0% | -8% | -27% | -16% | 3% | -1%
7	Cc1nn(C)c(C)c1CN(C)C(=O)c1cc2n(n1)C(C(F)(F)F)CC(c1cccs1)N2 (stereo not drawn)
  0% | 0% | 13µM* | -2% | 11% | -3%
8	CCOC(=O)c1sc(NC(=O)c2cc3n(n2)C(C(F)(F)F)CC(c2cccs2)N3)c(C(=O)OCC)c1C (stereo not drawn)
  -1% | 2% | . | 13% | -12% | -7%
9	O=c1[nH]c2cc([N+](=O)[O-])ccc2c2ccccc12
  6% | . | ? | -2% | . | -3%
10	O=c1[nH]c2cc([N+](=O)[O-])ccc2c2cc(Br)ccc12
  3.2µM* | . | . | . | . | -2%

# Shown as labelled records: part of the list above.
(1) Cc1ccc(NS(=O)(=O)c2ccc(N3CCCC3=O)cc2)cc1C
- Nrf2 ARE act: .
- Mito fusion act: .
- Nrf2 inh: 15µM*
- A549 tox: -6%
- miR-21 reporter: .
- Glioma ERSR ind: .

(2) CCC(C)NCc1ccc(C(=O)OC)o1 (stereo not drawn)
- Nrf2 ARE act: 0%
- Mito fusion act: 1%
- Nrf2 inh: -13%
- A549 tox: 0%
- miR-21 reporter: -6%
- Glioma ERSR ind: -3%

(3) COc1cc(N)c(N)cc1OC
- Nrf2 ARE act: .
- Mito fusion act: .
- Nrf2 inh: .
- A549 tox: .
- miR-21 reporter: .
- Glioma ERSR ind: 4%

(4) Cc1ccc(C2CC(C(F)(F)F)n3nc(C(=O)NCc4c(C)nn(C)c4C)c(Cl)c3N2)cc1 (stereo not drawn)
- Nrf2 ARE act: 6%
- Mito fusion act: -3%
- Nrf2 inh: 12µM*
- A549 tox: -29%
- miR-21 reporter: ?
- Glioma ERSR ind: -4%

# Next entries
# Under each structure: Nrf2 ARE act | Mito fusion act | Nrf2 inh | A549 tox | miR-21 reporter | Glioma ERSR ind
11	CCOC(=O)c1[nH]c2ccccc2c1NC(=O)C1CCCCC1
  -1% | -2% | -22% | -2% | -1% | -1%
12	CC(C1CC1)N(Cc1ccccc1)C(=O)NC(=O)c1ccccc1 (stereo not drawn)
  0% | -3% | -7% | 2% | -7% | -1%
13	CC(C1CC1)N(Cc1ccccc1)C(=S)Nc1ccccc1Cl (stereo not drawn)
  2% | -7% | 29µM* | -12% | 6% | -2%
14	S=C1NC2=C(CCCC2=C2SCCS2)C(c2ccccc2)N1 (stereo not drawn)
  22µM* | 1% | ? | 1% | -7% | 7%
15	Fc1ccc(/C=C2\CCCC3=C2NC(=S)NC3c2ccc(F)cc2)cc1 (stereo not drawn)
  . | 16% | . | . | -2% | .
16	NNC(=O)C1SCCN1S(=O)(=O)c1ccc(Cl)cc1 (stereo not drawn)
  0% | . | 4% | 0% | . | -2%
17	CCOC(=O)/C=C(\C)N1N=C(c2ccccc2)CC1c1ccccc1 (stereo not drawn)
  13µM* | -1% | ? | -5% | -63% | 4%
18	COc1ccc(C(C)=O)cc1CSc1nc(NCc2ccccc2)c2ccccc2n1
  4% | . | . | 23µM* | ? | -2%
19	COc1ccc(Cn2c(=O)[nH]c3cc(C(=O)N4CCN(Cc5ccccc5)CC4)ccc3c2=O)cc1
  -1% | 4% | 23µM* | -20% | 22% | -7%
20	COCCn1c(=S)[nH]c2cc(C(=O)N3CCN(C4CCCCC4)CC3)ccc2c1=O
  0% | . | . | . | . | -3%
21	COc1ccc(Cn2c(=O)[nH]c3cc(C(=O)N4CCN(c5ccccc5OC)CC4)ccc3c2=O)cc1
  0% | -4% | 21µM* | -26% | 12% | -1%
22	COc1ccc(Cn2c(=O)[nH]c3cc(C(=O)N4CCN(c5ccccc5F)CC4)ccc3c2=O)cc1
  0% | 0% | -19% | 2% | 3% | -4%
23	CCCCCn1c(=O)[nH]c2cc(C(=O)N3CCN(c4ccc(C(C)=O)cc4)CC3)ccc2c1=O
  3% | 1% | 21µM* | -5% | 8% | -2%
24	CCCCCn1c(=O)[nH]c2cc(C(=O)N3CCN(c4ccc(F)cc4)CC3)ccc2c1=O
  0% | . | ? | -7% | . | -5%
25	COCCn1c(=S)[nH]c2cc(C(=O)N3CCN(c4cccc(Cl)c4)CC3)ccc2c1=O
  3% | -1% | 21µM* | ? | 4% | -4%
26	O=C(c1[nH]nc2c1CCc1ccccc1-2)N1CCN(Cc2ccc3c(c2)OCO3)CC1
  1% | -7% | 15µM* | -17% | 2% | 11%
27	COc1ccccc1Cn1c(=S)[nH]c2cc(C(=O)N3CCN(c4ccccc4OC)CC3)ccc2c1=O
  1% | -4% | 0% | 6% | 5% | -3%
28	COCCn1c(=S)[nH]c2cc(C(=O)N3CCN(Cc4ccc5c(c4)OCO5)CC3)ccc2c1=O
  0% | -3% | ? | -26% | 4% | -1%
29	COc1ccc(C(=O)N2CCN(Cc3ccc4c(c3)OCO4)CC2)cc1OC
  1% | -6% | 16µM* | -7% | 25% | -3%
30	COc1ccccc1N1CCN(C(=O)c2ccc3c(=O)n(Cc4ccc5c(c4)OCO5)c(=O)[nH]c3c2)CC1
  0% | -16% | 15µM* | -9% | 2% | 1%
31	COCCn1c(=O)[nH]c2cc(C(=O)N3CCN(Cc4ccc5c(c4)OCO5)CC3)ccc2c1=O
  -1% | . | 12µM* | -2% | . | -5%
32	COc1cc(C(=O)N2CCN(Cc3ccc4c(c3)OCO4)CC2)cc(OC)c1OC
  3% | -2% | 5% | -6% | -2% | -3%
33	CNS(=O)(=O)c1cccc(C(=O)OCC(=O)c2cc3ccccc3o2)c1
  2% | -2% | 0% | 6% | -1% | -3%
34	COc1ccc(OCCN2CCN(C(=O)c3ccc(OC)c(OC)c3)CC2)cc1
  0% | -3% | 23µM* | -19% | 11% | 2%
35	O=C(c1ccc(Cn2c(=O)[nH]c3ccsc3c2=O)cc1)N1CCN(c2ccccc2)CC1
  0% | -2% | ? | -5% | 4% | 2%
36	O=C(c1ccc(Cn2c(=O)[nH]c3ccccc3c2=O)cc1)N1CCN(c2ccc(F)cc2)CC1
  0% | -2% | 10µM* | -8% | 25% | -10%
37	COc1ccc(OCC(=O)N2CCN(C(=O)c3ccc(OC)c(OC)c3)CC2)cc1
  0% | . | 16% | 6% | 2% | 0%
38	C=CCN(C(=O)c1csnn1)C(C(=O)NC1CCCC1)c1ccc(OC)cc1 (stereo not drawn)
  2% | -6% | 2% | -7% | -1% | 0%
39	COC1=C(C)C(=O)C2=C(C1=O)C1C3CC4=C(C(=O)C(OC)=C(C)C4=O)C(CNC(=O)C(C)=O)N3C(C#N)C(C2)N1C (stereo not drawn)
  -2% | . | 0.58µM* | 9.2µM* | . | -14%
40	Cc1ccc(Cl)cc1N1CCN(S(=O)(=O)c2c(C)noc2C)CC1
  -1% | 18µM* | -9% | 9% | 4% | -7%
